The numbers were not newly measured in PMC7935786 (Cancer Science, 2021), which cites them from elsewhere.

Each structure is given as a SMILES string.

The test system of this series is EZH2‐wt lymphoma xenograft. Particulars: EZH2‐wt lymphoma xenograft models, SCID mice; cited from earlier work.

With `CCN(c1cc(-c2ccc(CN3CCOCC3)cc2)cc(C(=O)NCc2c(C)cc(C)[nH]c2=O)c1C)C1CCOCC1` [Tazemetostat], the antitumor effects result is “induce antitumor effects”.
